Results: patent US8207199B2, “Azole compound” (dated 2012)

Test system: L5/L6 spinal nerve-ligated rat
Assay: Antiallodynia effect in L5/L6 spinal nerve-ligated rat (neuropathic pain model), von Frey hair test (Test Example 3)
Conditions: 3 mg/kg orally, 60 minutes before response threshold measurement; operated paw 0%, non-operated paw 100% in solvent group
Text: The presence of a therapeutic effect for neuropathic pain may be confirmed by methods known to those skilled in the art or by methods modified from them. For example, using an L5/L6 spinal nerve ligated rat that is produced according to partial modification of a Kim and Chung's method (Pain, Vol. 50, pp. 355-363, 1992), the improving effect of a compound for significant reduction in the response threshold to tactile stimulation (allodynia) can be evaluated, and based on it, the effect for treating neuropathic pain may be confirmed.
Test Example 3: Antiallodynia Effect of Compound in L5/L6 Spinal Nerve-Ligated Rat (Neuropathic Pain Model):
A 5 to 6-week age male SD rat was subjected to the operation of ligating its left-side L5 and L6 spinal nerves with silk threads, under pentobarbital anesthesia. For evaluating the analgesic effect, a von Frey hair test was employed. That is, the hindlimb of the animal was picked with hair, whereupon the minimum strength of the hair which caused limb withdrawal response was referred to as the response threshold to the mechanical stimulation (log gram). […] On the day before the day when the test compound would be tested, the response threshold before test compound administration was measured. […] In the evaluation test of the test compounds, the response threshold after test compound administration was measured. […]

O=C(/C=C/c1ccccc1)N1CCN(C(=O)Oc2cccnc2)CC1 was tested, and the “Recovery rate (%)” value was 47%.
